The text below walks through data of ChEMBL document CHEMBL1121560, “Synthesis and biological activity of 5-fluoro-2'-deoxyuridine 5'-phosphorodiamidates” (J Med Chem, 1980).

The target in the assay is T1, Thymidylate synthase (Lactobacillus casei) (UniProt P00469).
T1 sequence (whole entry): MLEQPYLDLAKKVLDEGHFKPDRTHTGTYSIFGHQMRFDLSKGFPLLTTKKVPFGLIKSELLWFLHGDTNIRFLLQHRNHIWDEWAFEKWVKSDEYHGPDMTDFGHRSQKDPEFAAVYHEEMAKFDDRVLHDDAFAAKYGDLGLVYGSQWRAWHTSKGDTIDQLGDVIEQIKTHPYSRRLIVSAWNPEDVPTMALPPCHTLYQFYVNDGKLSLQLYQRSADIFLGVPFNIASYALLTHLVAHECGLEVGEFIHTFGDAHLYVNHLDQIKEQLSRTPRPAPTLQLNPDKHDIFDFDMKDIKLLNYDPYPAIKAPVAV
The assay can be described thus: Compound was tested for its inhibition against Thymidylate synthase up to concentration of 1 mM; IA means inactive. The note with it: Lacticaseibacillus casei.

The source made the active and inactive calls. No cut-off for these calls is given here.

Take `O=c1[nH]c(=O)n([C@H]2C[C@H](O)[C@@H](COP(=O)(n3ccnc3)n3ccnc3)O2)cc1F`: the inhibition result was “inactive”.
